In PubChem BioAssay AID624465 (National Center for Advancing Translational Sciences (NCATS), 2012):
Only a part is listed here, and it is no random draw. Activity calls are given as the source filed them. No stated cut-off is given here; in the data, active means activation above about 40%; inconclusive means between about 15% and that limit; inactive means weaker than that.

Amino acid sequences for entries named in this document (tags omitted).
UniProt P14416, whole entry: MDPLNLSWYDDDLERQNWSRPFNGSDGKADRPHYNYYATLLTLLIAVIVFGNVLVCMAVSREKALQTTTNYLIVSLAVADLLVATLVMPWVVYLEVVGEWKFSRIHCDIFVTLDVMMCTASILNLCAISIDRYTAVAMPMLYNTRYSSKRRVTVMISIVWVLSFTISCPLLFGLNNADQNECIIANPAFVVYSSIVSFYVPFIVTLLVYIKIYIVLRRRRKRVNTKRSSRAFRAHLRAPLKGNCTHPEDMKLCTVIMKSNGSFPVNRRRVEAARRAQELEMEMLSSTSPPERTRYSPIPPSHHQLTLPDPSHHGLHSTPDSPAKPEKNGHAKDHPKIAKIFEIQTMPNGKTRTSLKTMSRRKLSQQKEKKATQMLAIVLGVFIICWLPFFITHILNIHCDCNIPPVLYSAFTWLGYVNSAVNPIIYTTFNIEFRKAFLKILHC

The compounds below were run against D(2) dopamine receptor (Homo sapiens) (UniProt P14416) (assay: Beta-Arrestin HTS for Positive Allosteric Modulators of the Human D2 Dopamine Receptor: Agonists). Details: DiscoveRx PathHunter D2 beta-arrestin, luminescence, 90 min; active compounds read high; 100% = 57 uM dopamine signal.
Text: There is great interest in identifying small molecule ligands for G-protein coupled receptors (GPCRs) as nearly 50% of all FDA-approved drugs target these important receptor proteins. […] Amongst the dopamine receptors (DARs), the D2 is arguably one of the most validated drug targets in neurology and psychiatry. For instance, all receptor-based antiparkinsonian drugs primarily work via stimulating the D2 DAR, whereas all FDA-approved antipsychotic agents are antagonists of this receptor. The D2 DAR is also therapeutically targeted in other disorders such as restless legs syndrome, tardive dyskinesia, Tourette's syndrome, and hyperprolactinemia.
To this end, a miniaturized qHTS screen was developed to be screened against the Molecular Libraries Small Molecule Repository (MLSMR). This assay seeks to identify agonists against the D2 DAR.
NIH Molecular Libraries Probe Production Network [MLPCN]
NIH Chemical Genomics Center [NCGC]
PI Name: David Sibley, National Institutes of Neurological Disorders and Stroke
DiscoveRx D2 cells were thawed from frozen stock and seeded at 2,100 cells/ 3 uL/well media (DiscoveRx Plating Reagent 2) with MultiDrop Combi dispenser (Thermo Scientific, Logan, UT) onto white tissue culture treated 1536-well Aurora plates (Brooks Automation, Chelmsford, MA) and allowed to attach overnight at 37 deg C, 5% CO2. Next, 23 nL/well of compound solutions in DMSO were added with a pintool transfer (Kalypsis, San Diego, CA). As the positive control, 1 uL/well dopamine (EC100, 57 uM final concentration) diluted in buffer (HBSS + 10 mM HEPES + SMB + 0.1% Tween-20) was dispensed to 1 column of each plate. The rest of the plate was dispensed with buffer only, 1 uL/well as well. The cells were stimulated by compounds or dopamine control for 90 minutes at 37 deg C, 5% CO2, after which 1.5 ul/well of DiscoveRx detection reagent was added with BioRAPTR FRD dispenser. The detection reagent was prepared by mixing of Galacton Star Substrate, Emerald II solution and PathHunter buffer (supplied by the assay kit) together at 1:5:19 proportion accordingly just prior to dispensing. The plates were incubated at ambient temperature for 1 hour and then the luminescent signal was read on ViewLux plate reader (PerkinElmer, Waltham, MA).
With COc1ccc(OP(C)(=O)Nc2ccccc2Br)cc1 (stereo not drawn) the activation was inactive: -1.48%. In the case of CCN(N=Nc1nonc1N)c1nonc1N, the activation was inactive: -2.56%. CP(=O)(OCCOc1ccccc1)OCCOc1ccccc1 was tested, and the activation was inactive: -0.181%. CP(=O)(Nc1ccc(Cl)cc1Cl)Oc1ccccc1 (stereo not drawn) was tested, and the activation was inactive: 2.29%. In the case of CCCCCCCCCCCCCCCC1C[N+](C)(C)CCOP(C)(=O)O1 (stereo not drawn), the activation was inactive: -3.99%. In the case of Nc1cccc2ccc([As](=O)(O)O)cc12, the activation was inactive: 8.04%. In the case of Nc1ccc2c(ccc3cccnc32)n1.O=[N+]([O-])c1cc([N+](=O)[O-])c(O)c([N+](=O)[O-])c1, the activation was inactive: -6.59%. For O=P1(N(CCCl)CCCl)OCCCS1 (stereo not drawn), the activation was inactive: -2.88%. With O=C(Nc1cc([As](=O)(O)O)ccc1O)c1ccccc1 the activation was inactive: 2.71%. For CCOC(=O)c1ccc(NP(C)(=O)Oc2ccc(Cl)cc2)cc1 (stereo not drawn), the activation was inactive: -1.17%. In the case of CP(=O)(OC12CC3CC(CC(C3)C1)C2)OC12CC3CC(CC(C3)C1)C2, the activation was inactive: -0.338%. With CC(C)(C)C(=O)NC(Sc1ccncn1)C(Cl)(Cl)Cl (stereo not drawn) the activation was inactive: -4.03%. O=[N+]([O-])c1ncn(CCn2ncnc2[N+](=O)[O-])n1 was tested, and the activation was inactive: 11.6%. With O=[N+]([O-])c1cccc(NC2=NCC(CBr)S2)c1 (stereo not drawn) the activation was inactive: -6.04%. In the case of COC(=O)C1(C)COP(=O)(Nc2ccccc2)OC1 (stereo not drawn), the activation was inactive: -0.969%. For O=C(O)CNc1ccc([As](=O)(O)O)cc1, the activation was inactive: -5.55%. With COc1ccc(C2=NCC(CBr)S2)cc1 (stereo not drawn) the activation was inactive: -1.93%. In the case of COc1ccc(OP(C)(=O)Nc2ccc(Br)cc2)cc1 (stereo not drawn), the activation was inactive: 1.76%. In the case of CCN(CC)CC(O)COC(=O)C(O)(c1ccccc1)C1CCCCC1 (stereo not drawn), the activation was inactive: -4.57%. For O=C(OCCCN1CCCC1)C(O)(c1ccccc1)C1CCCCC1 (stereo not drawn), the activation was inactive: -2.43%. With COc1ccccc1OP(C)(=O)Nc1c(C)n(C)n(-c2ccccc2)c1=O (stereo not drawn) the activation was inactive: -4.67%. For CC(=O)N1C2C3N(C(C)=O)C1C1N(C(C)=O)C(C(N1C(C)=O)N3C(C)=O)N2C(C)=O, the activation was inactive: -3.6%. For O=[N+]([O-])c1cccc2n[nH]nc12, the activation was inactive: -0.568%. CCc1ccc(OP(C)(=O)Nc2cccnc2)cc1 (stereo not drawn) was tested, and the activation was inactive: -5.06%. In the case of Cc1ccc(NP(=O)(Oc2ccccc2)Oc2ccccc2)nc1, the activation was inactive: -2.65%. In the case of CP(=O)(Oc1ccccc1)N1CCOC1=O (stereo not drawn), the activation was inactive: -2.37%. With C[N+]1=C2C=CC=CC=C2SC12C([N+](=O)[O-])=CC([N+](=O)[O-])=C[C-]2[N+](=O)[O-] (stereo not drawn) the activation was inactive: -8.78%. With Nc1ccc([As](=O)(O)c2ccc(N)cc2)cc1 the activation was inactive: -2.57%. With CC(C)(C)c1ccc(OP(C)(=O)O)cc1 the activation was inactive: -1.96%. COc1ccccc1OP(C)(=O)Nc1ccccc1Br (stereo not drawn) was tested, and the activation was inactive: 0.712%. In the case of CP(=O)(Nc1ccc(Cl)cc1)Oc1ccc(F)cc1 (stereo not drawn), the activation was inactive: 1.23%. CCN(/C(=N/P(=O)(N1CCOCC1)N1CCOCC1)N1CCOCC1)c1ccc(OC)cc1 was tested, and the activation was inactive: -2.97%. For CN(C)C(=O)OCCc1n(C)cc[n+]1C, the activation was inactive: -4.13%. CC(C)=N/N=C(\N)N[N+](=O)[O-] was tested, and the activation was inactive: -4.42%. In the case of CC(C)c1nc(Nc2ccccc2)n(P(=O)(N(C)C)N(C)C)n1, the activation was inactive: -8.43%. For c1cc(-c2nn[nH]n2)ccc1-c1nn[nH]n1, the activation was inactive: -14.1%. With CC1CCN(C(=O)Oc2c(Cl)cc(Cl)c3cccnc23)CC1 the activation was inactive: -3.1%. With COC(=O)C1(C)COP(=O)(N2CCCC2)OC1 (stereo not drawn) the activation was inactive: -6.51%. In the case of CP(=O)(Oc1ccccc1)OC(c1ccccc1)C(F)(F)F (stereo not drawn), the activation was inactive: -0.359%. CP(=O)(Nc1ccc(SC(F)(F)F)cc1)Oc1ccc(Cl)cc1 (stereo not drawn) was tested, and the activation was inactive: -3.35%. In the case of Cc1cccc(C)c1OP(C)(=O)Nc1ccc(SC(F)(F)F)cc1 (stereo not drawn), the activation was inactive: -1.25%. In the case of COP1(=S)c2c(C)nn(CCC#N)c2N=C(c2ccc(F)cc2)N1C (stereo not drawn), the activation was inactive: -2.29%. Cc1cc(C)cc(OP(C)(=O)Nc2ccc(SC(F)(F)F)cc2)c1 (stereo not drawn) was tested, and the activation was inactive: -3.26%. With CCc1ccc(OP(C)(=O)N2CCN(c3ccc([N+](=O)[O-])cc3)CC2)cc1 (stereo not drawn) the activation was inactive: -4.05%. CP(=O)(NC(=O)Nc1ccccc1)Oc1ccccc1 (stereo not drawn) was tested, and the activation was inactive: -1.64%. For O=C(COc1ccccc1)OC1CN2CCC1CC2 (stereo not drawn), the activation was inactive: -2.14%. With O=[N+]([O-])c1cc([N+](=O)[O-])c(O)c([N+](=O)[O-])c1.c1ccc(Oc2ccncc2)cc1 the activation was inactive: -7.44%. With CCOC(=O)c1ccc(NP(C)(=O)Oc2ccc(OC)cc2)cc1 (stereo not drawn) the activation was inactive: 2.44%. With CCOC(=O)c1ccc(NC(=O)C(C)(CCl)SC)cc1 (stereo not drawn) the activation was inactive: 5.48%. CSc1ccc(Nc2c([N+](=O)[O-])cc([N+](=O)[O-])cc2[N+](=O)[O-])cc1 was tested, and the activation was inactive: 2.5%. For O=C(OC1CN2CCC1CC2)c1cccc([N+](=O)[O-])c1 (stereo not drawn), the activation was inactive: -3.1%. For CCOP(C)(=S)SCC(=O)NC(C)C(=O)O (stereo not drawn), the activation was inactive: 0.0937%. CP(=O)(Nc1ccccn1)Oc1ccc(Cl)cc1 (stereo not drawn) was tested, and the activation was inactive: -0.54%. In the case of CCC(C)N(CC(C)C)C(=S)SC(NC(C)=O)C(Cl)(Cl)Cl (stereo not drawn), the activation was inactive: -4.33%. For CC1CCNP(=O)(N(CCCl)CCCl)O1 (stereo not drawn), the activation was inactive: -3.07%. With CCOC(=O)Nc1ccc([As](=O)(O)O)c(O)c1 the activation was inactive: -0.453%. In the case of O=C(O)C(=O)c1ccc(N(CCCl)CCCl)cc1.c1ccc(Nc2ccccc2)cc1, the activation was inactive: -4.1%. For Cc1cc(SC(NC(=O)c2ccccc2)C(Cl)(Cl)Cl)nc(C(C)C)n1 (stereo not drawn), the activation was inactive: -2.05%. CCCCOc1ccc(C(=O)NCC2(N3CCCCC3)CCCCC2)cc1OC was tested, and the activation was inactive: -16.1%. COP(=O)(OC)N1CC1c1ccccc1 (stereo not drawn) was tested, and the activation was inactive: -9.23%. In the case of CCOC(=O)Nc1cccc([As](=O)(O)O)c1, the activation was inactive: 0.554%. In the case of CP(=S)(Nn1cnnc1)Oc1ccccc1 (stereo not drawn), the activation was inactive: 0.0172%. For O=[N+]([O-])c1ccc(Nc2ccc(Oc3ccc([N+](=O)[O-])cc3[N+](=O)[O-])cc2)c([N+](=O)[O-])c1, the activation was inactive: 4.84%.
